# Experiments:
# The chains behind the UniProt entries cited, without tags or fusion partners.
# UniProt O43614, whole entry: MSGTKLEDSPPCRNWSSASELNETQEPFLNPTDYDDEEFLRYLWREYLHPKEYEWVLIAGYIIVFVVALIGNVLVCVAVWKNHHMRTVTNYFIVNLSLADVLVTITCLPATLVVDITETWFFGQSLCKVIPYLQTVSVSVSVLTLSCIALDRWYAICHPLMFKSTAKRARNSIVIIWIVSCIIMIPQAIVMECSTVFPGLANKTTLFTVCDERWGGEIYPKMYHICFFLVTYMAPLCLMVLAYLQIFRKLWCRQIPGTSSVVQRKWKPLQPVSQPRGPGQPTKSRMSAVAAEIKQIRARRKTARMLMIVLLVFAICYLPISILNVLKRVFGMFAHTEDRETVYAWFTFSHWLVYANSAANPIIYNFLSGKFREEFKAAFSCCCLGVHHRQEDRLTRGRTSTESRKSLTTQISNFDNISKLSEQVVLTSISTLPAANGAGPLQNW
# OX2 [1] = molecular target: T1, OX2 (Homo sapiens, UniProt O43614); test: Measurement of orexin receptor-binding ability ([125I]-OX-A, cell membranes, OX2); set-up: expressed in transfected cells; host or cells: CHO cells (membrane preparation); conditions: OX2 (IC50) nM, membranes of recombinant CHO cells expressing OX2, 0.2 nM [125I]-OX-A
# Experimental: 1. Measurement of Orexin Receptor-Binding Ability
# The assay was carried out using a 96-well Wheat Germ Agglutinin Flash Plate (PerkinElmer). The volume in a single assay well was 100 ul, and the composition of the reaction solution was as follows:
# 25 mM HEPES (pH 7.5), 1 mM CaCl2, 4.5 mM MgCl2, 0.5% BSA (bovine serum albumin), 0.1% sodium azide, 0.05% Tween-20, and 0.2% DMSO.
# Cell membranes were prepared from recombinant CHO cells that expressed OX2 or OX1. The cell membranes were used in an amount of 5 μg protein/assay. […] Finally, the radioactivity of each well was measured using a scintillation counter (TopCount, PerkinElmer).
# OX2 [2] = molecular target: T1, OX2; test: Measurement of antagonism (PLAP assay), OX2; assay type: cell-based; set-up: expressed in transfected cells; host or cells: HEK-293 cells, expression vector pBabeCLIH
# Experimental: 2. Measurement of Antagonism (PLAP Assay)
# The antagonistic function of the compound of the present invention to prevent the activation of OX2 and OX1 by orexin-A (OX-A), which is a natural peptide agonist, was measured using a cell-based reporter assay. […] The cells were plated at a density of 10,000 cells/well onto a non-coated 96-well plate in Dulbecco's modified Eagle medium (Sigma Cat No. D6046:10% v/v heat-inactivated fetal bovine serum was contained). The cells were cultured at 37° C. overnight, so that they could adhere to the plate. On the following day, cells were incubated with a compound of the present invention dissolved in Dulbecco's modified Eagle medium (Sigma Cat No. A8806:0.1% w/v bovine serum albumin was contained), and added to the cell plate to reach a final concentration of 0.1% dimethyl sulfoxide.
# The thus obtained mixture was incubated at room temperature for 1 hour. Thereafter, human OX-A and forskolin were dissolved in the same medium as described above, which contained fetal bovine serum albumin, and the medium was then added to the cells, resulting in a final concentration of 300 nM forskolin. Subsequently, the cells were cultured at 37° C. for approximately 18 to 24 hours.
smiles,measurement,setting,value
"Cc1ncc(OC[C@@]2(c3cccc(F)c3)C[C@H]2C(=O)Nc2ccc(F)cn2)c(C)n1 [Example 95, (1R,2S)-2-{[(2,4-dimethylpyrimidin-5-yl)oxy]methyl}-2-(3-fluorophenyl)-N-(5-fluoropyridin-2-yl)cyclopropanecarboxamide]",IC50,OX2 [1],5.2 nM
same,Ki,OX2 [2],0.69 nM

# — US8268848B2, “Cyclopropane compound” (Eisai R&D Management Co., Ltd., priority 2010, dated 2012)
